Patent US20080090771A1, “ABUSE-RESISTANT H[…], COMPOSITIONS AND METHODS OF USING THE SAME” (SHIRE LLC, priority 2006, published 2008)

Tests used:
[1] = Intranasal bioavailability of hydrocodone conjugates in rats; conditions: relative to hydrocodone
[2] = Oral bioavailability of hydrocodone conjugates in rats; conditions: for bioavailability (% HC) oral AUC / bioavailability (% HC) oral Cmax: rats, relative to hydrocodone; for Oral:IN Index AUC: ratio of oral to intranasal AUC (% HC); for Oral:IN Index Cmax: ratio of oral to intranasal Cmax (% HC)

Row | Substance | bioavailability (% HC) IN AUC [1] [% HC] | bioavailability (% HC) IN Cmax [1] [% HC] | bioavailability (% HC) oral AUC [2] [% HC] | bioavailability (% HC) oral Cmax [2] [% HC] | Oral:IN Index AUC [2] | Oral:IN Index Cmax [2]
1 | Gly-Gly-Leu-Hydrocodone [Gly-Gly-Leu-HC] | 77 | 62 | 82 | 126 | 1.06 | 2.03
2 | (d)-Lys-(1)-Lys-Ile-Hydrocodone [(d)Lys(I)Lys-Ile-HC] | 41 | 54 | 141 | 174 | 3.44 | 3.22
